Legend:
EphA2 = EphA2 (Homo sapiens, UniProt P29317); experiment: EphA2 phosphorylation induced by ephrin-A1-Fc in PC3 cells; details: PC3 cells, 50, 25, 12, 6 μM, Figure 3
EphA2 receptor = EphA2 receptor (Mus musculus, UniProt Q03145); experiment: ELISA displacement of ephrin-A1 binding from immobilized EphA2 receptor

The chains behind the UniProt entries cited, without tags or fusion partners. A line that says so, or that is headed by a name, gives the form on record, which may keep a tag or linker. Residues count along the entry.
UniProt P29317, 24-976: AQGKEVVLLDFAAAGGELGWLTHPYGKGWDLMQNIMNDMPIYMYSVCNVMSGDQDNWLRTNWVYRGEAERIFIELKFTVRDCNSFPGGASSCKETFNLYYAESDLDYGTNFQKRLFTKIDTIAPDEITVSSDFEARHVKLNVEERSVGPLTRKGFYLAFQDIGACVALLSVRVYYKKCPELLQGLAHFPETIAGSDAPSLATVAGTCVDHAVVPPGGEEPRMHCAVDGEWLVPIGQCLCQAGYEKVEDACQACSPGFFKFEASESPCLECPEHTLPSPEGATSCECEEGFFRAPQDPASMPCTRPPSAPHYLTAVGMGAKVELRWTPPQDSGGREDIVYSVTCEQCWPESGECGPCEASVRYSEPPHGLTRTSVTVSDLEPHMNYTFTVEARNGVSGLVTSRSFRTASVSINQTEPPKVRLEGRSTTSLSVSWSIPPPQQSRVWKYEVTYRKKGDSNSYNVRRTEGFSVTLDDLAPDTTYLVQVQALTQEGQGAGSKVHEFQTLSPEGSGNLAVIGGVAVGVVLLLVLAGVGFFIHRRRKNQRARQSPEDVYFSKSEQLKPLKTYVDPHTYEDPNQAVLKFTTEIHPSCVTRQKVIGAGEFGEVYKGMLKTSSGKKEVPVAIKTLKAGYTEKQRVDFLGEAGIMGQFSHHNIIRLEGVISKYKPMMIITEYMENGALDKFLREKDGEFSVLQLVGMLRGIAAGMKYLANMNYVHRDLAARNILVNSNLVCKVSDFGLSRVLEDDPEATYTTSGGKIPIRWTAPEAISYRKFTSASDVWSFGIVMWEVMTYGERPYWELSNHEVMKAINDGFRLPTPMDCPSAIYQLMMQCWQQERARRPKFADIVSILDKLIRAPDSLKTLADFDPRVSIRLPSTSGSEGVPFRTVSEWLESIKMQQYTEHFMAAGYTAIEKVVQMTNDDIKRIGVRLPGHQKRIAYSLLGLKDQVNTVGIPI
UniProt Q03145, with tags, fused parts or gaps limits assumed: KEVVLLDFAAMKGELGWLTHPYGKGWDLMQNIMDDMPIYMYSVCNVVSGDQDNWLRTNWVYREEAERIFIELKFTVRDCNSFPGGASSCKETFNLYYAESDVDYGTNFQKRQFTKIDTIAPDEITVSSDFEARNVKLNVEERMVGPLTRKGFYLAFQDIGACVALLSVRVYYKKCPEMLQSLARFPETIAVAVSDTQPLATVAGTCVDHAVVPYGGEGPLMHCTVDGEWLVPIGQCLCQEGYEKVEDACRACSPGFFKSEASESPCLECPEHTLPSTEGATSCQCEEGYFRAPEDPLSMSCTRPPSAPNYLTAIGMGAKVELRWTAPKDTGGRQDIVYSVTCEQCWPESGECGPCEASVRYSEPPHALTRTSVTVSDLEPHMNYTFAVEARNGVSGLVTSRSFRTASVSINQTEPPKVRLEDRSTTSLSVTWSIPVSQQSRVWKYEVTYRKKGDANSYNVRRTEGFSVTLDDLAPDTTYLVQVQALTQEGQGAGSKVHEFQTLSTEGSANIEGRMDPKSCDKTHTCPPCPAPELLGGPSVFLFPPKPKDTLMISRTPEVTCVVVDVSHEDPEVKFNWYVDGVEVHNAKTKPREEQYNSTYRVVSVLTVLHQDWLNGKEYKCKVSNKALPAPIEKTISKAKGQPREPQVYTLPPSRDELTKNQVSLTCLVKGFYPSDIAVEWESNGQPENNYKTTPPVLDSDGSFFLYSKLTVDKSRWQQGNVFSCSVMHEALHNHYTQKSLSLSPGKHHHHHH

C[C@H](CCC(=O)NCC(=O)O)[C@H]1CC[C@H]2[C@@H]3CC[C@@H]4CCCC[C@]4(C)[C@H]3CC[C@]12C [Compound 2, N-(5β-cholan-24-oyl)glycine]
inhibition of EphA2 phosphorylation relative to 1 (in words) (EphA2): less potent than 1 | IC50 (EphA2 receptor): 13.2 µM

Reference: article PMC6270184, “Synthesis and Structure-Activity Relationships of Amino Acid Conjugates of Cholanic Acid as Antagonists of the EphA2 Receptor” (Molecules, 2013)
